This assay addresses rat TAAR1 (Rattus norvegicus (Rat), UniProt Q923Y9). Put plainly: Radioligand binding assay on rat TAAR1. As to conditions: read-out: Ki (μM) rat; rat TAAR1, membranes of HEK-293 cells, second value of the cell pair mouse/rat; tested form: HCl.

Protein sequences, listed by entry. Tags and fused reporters are not part of them.
UniProt Q923Y9, whole entry: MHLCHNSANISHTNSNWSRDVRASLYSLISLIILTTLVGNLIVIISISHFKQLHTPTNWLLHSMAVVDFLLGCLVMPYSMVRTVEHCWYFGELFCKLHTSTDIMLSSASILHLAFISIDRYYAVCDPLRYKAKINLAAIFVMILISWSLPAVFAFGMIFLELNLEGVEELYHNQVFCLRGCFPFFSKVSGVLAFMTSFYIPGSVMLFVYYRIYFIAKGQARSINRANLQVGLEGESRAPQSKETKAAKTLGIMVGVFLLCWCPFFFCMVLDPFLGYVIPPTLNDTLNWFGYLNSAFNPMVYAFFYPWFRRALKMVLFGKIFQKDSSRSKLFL

SMILES strings stand for the structures.

The Ki is a dissociation constant, usually derived from enzyme kinetics or from competition with a known ligand. Consider `Clc1cccc(-c2cc(-c3ccc([C@@H]4CNCCO4)cc3)n[nH]2)c1`, for which the Ki is 0.002 µM.

The values are drawn from patent publication US9181230B2, “Morpholine compounds and uses thereof” (Hoffmann-La Roche Inc., priority 2013, dated 2015).
